Values of other authors in paper PMC10572662, “Exploring the Influence of Spacers in EDTA–β-Cyclodextrin Dendrimers: Physicochemical Properties and In Vitro Biological Behavior” (International Journal of Molecular Sciences, 2023).
≈ marks a conversion by molar mass, not a printed value.

Design: method as in PMID 17601630
Conditions: native βCD and commercial βCD derivatives

Question: Which water solubility does the source give for OC[C@H]1O[C@@H]2O[C@H]3[C@H](O)[C@@H](O)[C@@H](O[C@H]4[C@H](O)[C@@H](O)[C@@H](O[C@H]5[C@H](O)[C@@H](O)[C@@H](O[C@H]6[C@H](O)[C@@H](O)[C@@H](O[C@H]7[C@H](O)[C@@H](O)[C@@H](O[C@H]8[C@H](O)[C@@H](O)[C@@H](O[C@H]1[C@H](O)[C@H]2O)O[C@@H]8CO)O[C@@H]7CO)O[C@@H]6CO)O[C@@H]5CO)O[C@@H]4CO)O[C@@H]3CO [native βCD, β-cyclodextrin] here?
Answer: Its water solubility is 18.5 mg/mL (≈ 16.3 mM).
